For one experiment, the system named is GammaA3. As to the kind of experiment: MTS cell viability assay. The note with it: 96 h. The class given is cell-based, mouse. On the technique in general: Tetrazolium assays rely on reduction of a dye to a coloured formazan, in cell work by metabolically active cells.
The test system of experiment [1] is Bcr/Abl and Src family kinases. The settings on record: read-out: IC50, activation of Bcr/Abl and Src family kinases; calculated IC50; cited from earlier work.

As to `Cc1nc(Nc2ncc(C(=O)Nc3c(C)cccc3Cl)s2)cc(N2CCN(CCO)CC2)n1` [Dasatinib, reference compound], the “IC50 lower than that of Si162” value in the experiment on GammaA3 is 20 fold. Besides, the IC50 in experiment [1] was 1.83 nM.

The record behind these values is publication PMC2994747 (2010).
